Source: paper PMC7375689 (Leukemia & lymphoma, 2020)

Assay: Plasma pharmacokinetics of AR-42 in AML patients
Assay type: in vivo, human
Details: day 5

For AR-42, which “fold increase in AUC between the 20 and 40 mg dose levels” value is on record?
Its value is 1.7 fold.

And the “fold increase in Cmax between the 20 and 40 mg dose levels” value?
The value was 2.4 fold.
